Among the data in PubChem BioAssay (EPA / NIEHS) are outcome values, retold here.

This is a selection; strong and weak results do not stand in their true shares. Activity calls are given as the source filed them. How the source made its calls: active means hit-call score of the fitted dose curve at least 0.9, where 1 is the maximum; inactive means score below 0.9.

This experiment in a line: ATG_RORE_CIS: Attagene CIS-FACTORIAL HepG2 Assay for human RAR-related Orphan Receptor Element (RORE) (AID 2282959). The conditions noted are these: HepG2 Attagene cis-factorial RORE reporter, mRNA; actives raise or lower the signal.
Consider `COCC(C)O` (centres undefined), for which the compound was called inactive. To `C[C@](N)(Cc1ccc(O)c(O)c1)C(=O)O` belongs “inactive”; to `CCOc1ccc(NC(N)=O)cc1`, “inactive”; to `CCOC(=O)Cc1cccc2ccccc12`, “inactive”.
